# The entries are a selection whose mix differs from that of the whole data set. Calls of active or inactive are those of the source. No stated cut-off is given here; in the data, active means inhibition mostly above about 24% (no sharp cut-off); inactive means mostly below about 32%.
# Experiment: NALP1 inflammasome inhibitors in reconstituted yeast, colorimetric, S. cerevisiae, triplicate retest (AID 2071)
# Settings: S. cerevisiae NALP1/ASC/caspase-1 growth, X-gal OD620, 72 h; at 10 µM; active compounds read high
row,Compound,inhibition
1,CCOc1ccc(C)cc1CN(CCCl)CCCl,inactive: 10.1%
2,O=C(NCC1(N2CCCCC2)CCCCC1)c1ccc(F)cc1,inactive: 5.7%
3,COc1ccc(NC2CCN(CCc3ccccc3)CC2)c(OC)c1,inactive: 11.1%
4,CCOC(=O)N1CCC(Nc2ccc(F)cc2)CC1,inactive: 8.9%
5,COc1cc(C(=O)NCC2(N(C)C)CCCCC2)ccc1OC(F)F,inactive: 1.7%
6,Cc1ccc(OCC(C)C)c(CN(CCCl)CCCl)c1,inactive: 17.1%
7,COc1ccc(C(=O)NCC2(N3CCCCC3)CCCCC2)cc1,inactive: 13.4%
8,COc1ccc(C(=O)NCC2(N3CCCCC3)CCCCC2)c(OC)c1OC,inactive: -8.4%
9,CC(C)(C)OC(=O)N1CCC(N(C(=O)c2ccccc2)c2ccc(F)cc2)CC1,inactive: 17.1%
10,O=C(NCC1(N2CCCCC2)CCCCC1)c1ccc(=O)[nH]c1,inactive: -3.1%
11,CSc1ccccc1C(=O)NCC1(N2CCCCC2)CCCCC1,inactive: 26%
12,Cc1cc(C)cc(N(C(=O)c2ccccc2)C2CCN(C(=O)OC(C)(C)C)CC2)c1,inactive: -10.1%
13,O=C(NCC1(N2CCOCC2)CCCCC1)c1cc2ccccc2o1,inactive: 8.5%
14,N#CC1(Nc2ccccc2)CCN(Cc2ccccc2)CC1,inactive: -1.4%
15,O=C(OC1CN2CCC1CC2)C1c2ccccc2Oc2ccccc21 (stereo unspecified),inactive: 7.2%
16,CCOC(=O)N1CCC(Nc2ccc(OC)cc2)CC1,inactive: 13.5%
17,CC(C)c1ccc(NC2CCN(C(=O)OC(C)(C)C)CC2)cc1,inactive: 6.3%
18,COc1ccc(CN(CCCl)CCCl)cc1Cl,inactive: 1.3%
19,CN(C)c1cccc(C(=O)NCC2(N3CCCCC3)CCCCC2)c1,inactive: -18.4%
20,COc1cc(OC)c(C(=O)NCC2(N(C)C)CCCCC2)cc1OC,inactive: 13.3%
21,CCCOc1ccc(C(=O)NCC2(N(C)C)CCCCC2)cc1OC,inactive: -90%
22,O=C(NCC1(N2CCCCC2)CCCCC1)c1ccc(OC(F)F)cc1,inactive: 29.4%
23,N#CC1(Nc2ccccc2)CCN(CCc2ccccc2)CC1,inactive: -2.2%
24,O=C(NCC1(N2CCCCC2)CCCCC1)c1cccc([N+](=O)[O-])c1,inactive: -18.3%
25,O=C(NCC1(N2CCCCC2)CCCCC1)c1cccc(C(F)(F)F)c1,inactive: 1.2%
26,COc1cc(C(=O)NCC2(N3CCCCC3)CCCCC2)ccc1OC(F)F,inactive: 5.1%

row,Compound,inhibition
1,O=C(NCC1(N2CCOCC2)CCCCC1)c1cc(=O)[nH]c2ccccc12,active: 42.8%
2,CN1CCN(CCOC(=O)C(O)(c2ccccc2)c2ccccc2)CC1,inactive: 28.9%
3,COc1ccc(NC2CCN(C(=O)OC(C)(C)C)CC2)cc1,inactive: -0.1%
4,N#Cc1ccc(C(=O)NCC2(N3CCCCC3)CCCCC2)cc1,inactive: 8.6%
5,CC(C)(C)OC(=O)N1CCC(N(C(=O)c2ccccc2)c2ccc(Cl)cc2)CC1,inactive: -21.1%
6,CN(C)C1(CNC(=O)c2cccc(C#N)c2)CCCCC1,inactive: 9%
7,c1ccc(CN2CCC(Nc3ccccc3)CC2)cc1,inactive: 17.1%
8,CCCN1CCC(Nc2cc(OC)cc(OC)c2)CC1,inactive: 11%
9,COc1ccc(C(=O)NCC2(N3CCOCC3)CCCCC2)cc1OC,inactive: 0.7%
10,CCOC(=O)N1CCC(Nc2ccc(C)cc2)CC1,inactive: 5.4%
11,N/C(=N\O)c1c(N)no[n+]1[O-],inactive: 21.3%
12,O=C(OC1CN2CCC1CC2)C1c2ccccc2C=Cc2ccccc21 (stereo unspecified),inactive: 12%
13,CCOc1ncccc1C(=O)NCC1(N2CCOCC2)CCCCC1,inactive: -9%
14,CN1CCC(Nc2ccc(F)c(Cl)c2)CC1,inactive: 3.2%
15,CC(C)(C)OC(=O)N1CCC(Nc2ccccc2)CC1,inactive: -4.7%
16,O=C(O)C1(Nc2ccccc2)CCN(Cc2ccccc2)CC1,inactive: 3.8%
17,CCCOc1ccc(C(=O)NCC2(N(C)C)CCCCC2)cc1,inactive: 10.4%
18,COc1cc(OC)cc(C(=O)NCC2(N3CCOCC3)CCCCC2)c1,inactive: 7.8%
19,COc1cccc(C(=O)N(c2cc(C)cc(C)c2)C2CCN(C(=O)OC(C)(C)C)CC2)c1,inactive: 13.7%
20,CCC(CO)(C(=O)OC1CN2CCC1CC2)c1ccccc1 (stereo unspecified),inactive: -8.2%
21,CCCOc1ccc(C)cc1CN(CCCl)CCCl,inactive: 1.3%
22,COc1cc(OC)cc(C(=O)NCC2(N3CCCCC3)CCCCC2)c1,inactive: 22%
23,Fc1ccccc1NC1CCN(Cc2ccccc2)CC1,inactive: 9.3%
24,CCN1CCC(Nc2cccc(F)c2)CC1,inactive: 45.9%
25,CN(C)c1ccc(C(=O)NCC2(N3CCCCC3)CCCCC2)cc1,inactive: 5.8%
